Experimental data reported in US11376580B2, “Methods and systems comprising modified pipettes for transferring and preserving biomaterial” (UNIVERSITY OF PITTSBURGH—OF THE COMMONWEALTH SYSTEM OF …, priority 2017, dated 2022).
Read-outs that look alike come from different tables or passages of the source.

System: HEK293 cells

O=[N+]([O-])c1ccc(O)cc1 [4-Nitrophenol, 4-Nitrophenol]
HEK293 cytotoxicity co-cultured with BioActivator (in words): increased | HEK293 cytotoxicity co-cultured with BioActivator (in words) (human): measurable LC50 responses
